This is an account of results in ChEMBL document CHEMBL1123878, “Potential antitumor agents. 50. In vivo solid-tumor activity of derivatives of N-[2-(dimethylamino)ethyl]acridine-4-carboxamide” (J Med Chem, 1987).

Assay [1] deals with Nucleic Acid. As to the kind of experiment: Binding constant to poly(dA-dT)DNA by ethidium bromide displacement. The class given is nucleic-acid assay. The method, boiled down:
(§1)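 Association constants derived from the drug concentration displacing 50% of bound ethidium from the polynucleotide, assuming competitive binding of drug and ethidium to DNA.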

Assay [2] has as its system Nucleic Acid. The assay can be described thus: Binding constant to poly(dG-dC)DNA by ethidium bromide displacement. The class given is nucleic-acid assay. The gist of the method: as §1

SMILES strings stand for the structures.

`COc1ccc2cc3cccc(C(=O)NCCN(C)C)c3nc2c1.Cl.Cl`: the Log K worked out at 7.28 with Nucleic Acid [1] and 8.39 in the assay on Nucleic Acid [2]. `CN(C)CCNC(=O)c1cccc2cc3ccccc3nc12.Cl.Cl` came in with a Log K with Nucleic Acid [2] of 6.54. Regarding `Cc1ccc2cc3ccccc3nc2c1C(=O)NCCN(C)C.Cl.Cl`, the Log K was found to be 5.74 with Nucleic Acid [1] and 6.11 with Nucleic Acid [2].

Consider `COc1cccc2nc3c(C(=O)NCCN(C)C)cccc3cc12.Cl`, for which the Log K in the assay on Nucleic Acid [1] came out at 7.14; with Nucleic Acid [2], 7.23. The like results for `CCN(CC)CCNC(=O)c1cccc2cc3ccccc3nc12.Cl.Cl` were, in that order, 6.51 and 6.38. As for `CN(C)CCNC(=O)c1cc(Cl)cc2cc3ccccc3nc12.Cl.Cl`, the figures for the Log K in the assay with Nucleic Acid [1] and with Nucleic Acid [2] were 7.12 and 7.31, respectively. As for `COc1cccc2cc3cccc(C(=O)NCCN(C)C)c3nc12.Cl`, the values for the Log K with Nucleic Acid [1] and in the assay with Nucleic Acid [2] were 7.96 and 7.38, respectively. `CNCCNC(=O)c1cccc2cc3ccccc3nc12.Cl.Cl`: the Log K in the assay on Nucleic Acid [1] turned out to be 6.43; with Nucleic Acid [2], 6.9. Take `CN(C)CCNC(=O)c1cccc2cc3c(Cl)cccc3nc12.Cl.Cl.Cl`: the Log K in the assay on Nucleic Acid [1] was found to be 7; in the assay with Nucleic Acid [2], 6.96. For `COc1ccc2nc3c(C(=O)NCCN(C)C)cccc3cc2c1.Cl.Cl`, the Log K in the assay on Nucleic Acid [1] came to 6.87; with Nucleic Acid [2], 7.07. Taken in the same sequence, the figures for `Cc1c2ccccc2nc2c(C(=O)NCCN(C)C)cccc12.Cl.Cl` were 7.75 and 8.48. Take `CN(C)CCCCNC(=O)c1cccc2cc3ccccc3nc12.Cl`: the Log K in the assay with Nucleic Acid [1] turned out to be 6.47; in the assay with Nucleic Acid [2], 6.4. In the case of `CN(C)CCNC(=O)c1ccc2nc3ccccc3cc2c1.Cl.Cl`, the Log K with Nucleic Acid [1] came to 7.17; in the assay with Nucleic Acid [2], 7.59. Regarding `Cc1cc(C(=O)NCCN(C)C)c2nc3ccccc3cc2c1.Cl.Cl`, the Log K with Nucleic Acid [1] stood at 6.8; in the assay with Nucleic Acid [2], 7.05. On to `CN(C)CCNC(=O)c1cccc2cc3ccc(Cl)cc3nc12.Cl`, for which the Log K stood at 6.73 in the assay with Nucleic Acid [1] and 7 in the assay on Nucleic Acid [2]. Take `CN(C)CCNC(=O)c1cccc2cc3cc(Cl)ccc3nc12.Cl.Cl`: the Log K amounted to 6.87 in the assay with Nucleic Acid [1] and 7.14 in the assay with Nucleic Acid [2]. As for `Cc1ccc2cc3cccc(C(=O)NCCN(C)C)c3nc2c1.Cl.Cl`, the Log K with Nucleic Acid [1] came to 6.93; with Nucleic Acid [2], 7.26. Take `COc1cc(C(=O)NCCN(C)C)c2nc3ccccc3cc2c1.Cl.Cl`: the Log K in the assay with Nucleic Acid [1] came to 7.14; in the assay on Nucleic Acid [2], 8.25. Taken in the same sequence, the figures for `Cc1cccc2cc3cccc(C(=O)NCCN(C)C)c3nc12.Cl.Cl` were 6.99 and 7.42. Consider `CN(C)CCNC(=O)c1ccc2cc3ccccc3nc2c1.Cl.Cl`, for which the Log K in the assay with Nucleic Acid [1] was found to be 7.12; in the assay on Nucleic Acid [2], 6.94.

In the case of `CN(C)CCCNC(=O)c1cccc2cc3ccccc3nc12.Cl.Cl`, the Log K with Nucleic Acid [1] came out at 6.13; with Nucleic Acid [2], 6.42. Regarding `Cc1ccc2nc3c(C(=O)NCCN(C)C)cccc3cc2c1.Cl.Cl`, the Log K amounted to 6.97 in the assay on Nucleic Acid [1] and 7 in the assay on Nucleic Acid [2]. With `Cc1ccc(C(=O)NCCN(C)C)c2nc3ccccc3cc12.Cl.Cl`, the results for the Log K with Nucleic Acid [1] and in the assay with Nucleic Acid [2] were 7.12 and 8.06, respectively. `Cl.Cl.O=C(NCCNCCO)c1cccc2cc3ccccc3nc12`: the values for the Log K with Nucleic Acid [1] and with Nucleic Acid [2] were 6.94 and 7.09, respectively. On to `CN(C)CCNC(=O)c1ccc(Cl)c2cc3ccccc3nc12.Cl.Cl`, for which the Log K in the assay with Nucleic Acid [1] amounted to 7.18; in the assay with Nucleic Acid [2], 7.2. Turning to `CN(C)CCCCCCNC(=O)c1cccc2cc3ccccc3nc12.Cl`, the Log K is 6.54 with Nucleic Acid [1] and 6.36 in the assay with Nucleic Acid [2].

As to `COc1ccc(C(=O)NCCN(C)C)c2nc3ccccc3cc12.Cl.Cl`, the values for the Log K in the assay on Nucleic Acid [1] and in the assay with Nucleic Acid [2] were 7.05 and 7.96, respectively. Consider `CN(C)CCCCCNC(=O)c1cccc2cc3ccccc3nc12.Cl`, for which the Log K with Nucleic Acid [1] came out at 6.16; in the assay on Nucleic Acid [2], 6.38.

For `CN(C)CCNC(=O)c1cccc2cc3cccc(Cl)c3nc12.Cl.Cl`, the Log K in the assay with Nucleic Acid [1] turned out to be 7.63; in the assay on Nucleic Acid [2] it was 7.2.

Turning to `Cc1cccc2nc3c(C(=O)NCCN(C)C)cccc3cc12.Cl.Cl.O.O`, the figures for the Log K in the assay with Nucleic Acid [1] and with Nucleic Acid [2] were 7 and 7.96, respectively. On to `Cl.Cl.NCCNC(=O)c1cccc2cc3ccccc3nc12`, for which the Log K worked out at 7.05 in the assay with Nucleic Acid [1] and 7.03 in the assay with Nucleic Acid [2].
